Experimental data from patent US20260098268A1, “COMPOSITIONS AND METHODS TO TREAT ALZHEIMER'S DISEASE AND OTHER BRAIN DISEASES” (priority 2022, published 2026).

Protein sequences, listed by entry. Tags and fused reporters are not part of them.
UniProt P47746, whole entry: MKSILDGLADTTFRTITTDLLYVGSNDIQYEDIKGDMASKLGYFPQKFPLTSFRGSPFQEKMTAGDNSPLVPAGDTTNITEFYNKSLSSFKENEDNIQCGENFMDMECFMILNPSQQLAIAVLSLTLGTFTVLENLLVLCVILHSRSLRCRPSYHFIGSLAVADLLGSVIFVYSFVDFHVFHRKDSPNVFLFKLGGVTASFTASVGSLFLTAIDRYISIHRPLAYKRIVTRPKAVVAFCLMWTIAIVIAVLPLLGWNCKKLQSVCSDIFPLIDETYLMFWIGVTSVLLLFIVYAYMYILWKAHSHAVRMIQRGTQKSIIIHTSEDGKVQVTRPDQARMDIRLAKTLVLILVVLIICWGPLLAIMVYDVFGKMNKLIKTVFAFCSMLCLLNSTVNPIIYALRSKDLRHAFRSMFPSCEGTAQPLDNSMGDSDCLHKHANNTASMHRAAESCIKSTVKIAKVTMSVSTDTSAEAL

Target: CB1R (Mus musculus, UniProt P47746)
Settings: WT mice; RIM 2 μM, WIN 5 μM

For `Cc1c(C(=O)NN2CCCCC2)nn(-c2ccc(Cl)cc2Cl)c1-c1ccc(Cl)cc1` [RIM, Rimonabant], which “effect on WIN-induced suppression of IPSCs” value is on record?
The value was “blocked”.
